Results on two molecules are retold here after DBAASP.

In brackets after ≈: the same amount, converted by molar mass.

For one test, the system named is Escherichia coli K-12. The test is described as follows: ≥ marks a high value that may be exact or a test limit, other limits are often not marked, values filed in µg/mL are converted to µM.
Test [1] relates to Staphylococcus aureus ATCC 12600. Described as above.

As for `CC(C)C[C@H](NC(=O)[C@H](CCCCN)NC(=O)[C@H](CCCCN)NC(=O)[C@H](Cc1ccccc1)NC(=O)[C@H](Cc1ccccc1)NC(=O)[C@@H](N)CCCCN)C(=O)N[C@@H](CCCCN)C(=O)N[C@@H](CCCCN)C(=O)N[C@@H](C)C(=O)N[C@H](C(=O)N[C@@H](CCCCN)C(=O)N[C@@H](CCCCN)C(=O)NCC(=O)N[C@@H](Cc1ccccc1)C(=O)N[C@@H](CCCCN)C(=O)N[C@@H](CCCCN)C(=O)N[C@@H](Cc1ccccc1)C(=O)N[C@@H](C)C(=O)N[C@@H](CCCCN)C(=O)N[C@H](C(=O)O)C(C)C)C(C)C` [KFFKKLKKAVKKGFKKFAKV], the MIC was 8 µM (≈ 19.2 µg/mL) in the test with Escherichia coli K-12 and not below 128 µM in test [1].

In the case of `CC[C@H](C)[C@H](NC(=O)[C@H](C)NC(=O)[C@H](CCCCN)NC(=O)[C@H](CC(C)C)NC(=O)[C@H](C)NC(=O)[C@@H](NC(=O)[C@H](Cc1cnc[nH]1)NC(=O)[C@H](CC(C)C)NC(=O)[C@@H](NC(=O)[C@@H](NC(=O)[C@H](CCCCN)NC(=O)[C@@H](NC(=O)[C@H](C)NC(=O)[C@H](CO)NC(=O)[C@H](CCCCN)NC(=O)[C@H](Cc1ccccc1)NC(=O)[C@@H](NC(=O)[C@H](CCCCN)NC(=O)[C@H](CC(C)C)NC(=O)[C@H](Cc1ccccc1)NC(=O)[C@H](CO)NC(=O)[C@H](CCCCN)NC(=O)[C@H](Cc1c[nH]c2ccccc12)NC(=O)[C@@H](N)CCCCN)[C@@H](C)O)C(C)C)[C@@H](C)O)C(C)C)[C@@H](C)O)C(=O)N[C@@H](CO)C(=O)N[C@@H](CO)C(=O)O` [KWKSFLKTFKSAVKTVLHTALKAISS], the MIC in the test with Escherichia coli K-12 turned out to be 4 µM (≈ 11.7 µg/mL); in test [1], 16 µM (≈ 46.7 µg/mL).

Broadly, the MIC is the lowest concentration found to suppress growth.
